For one molecule, IC50 results are on record in patent US11351170B2, “Substituted pyrimidines as CDK4/6 inhibitors” (priority 2017, dated 2022).

The chains behind the UniProt entries cited, without tags or fusion partners. Where a name states a change or a piece, a line headed by the entry shows the natural chain unless it says otherwise.
UniProt P11802: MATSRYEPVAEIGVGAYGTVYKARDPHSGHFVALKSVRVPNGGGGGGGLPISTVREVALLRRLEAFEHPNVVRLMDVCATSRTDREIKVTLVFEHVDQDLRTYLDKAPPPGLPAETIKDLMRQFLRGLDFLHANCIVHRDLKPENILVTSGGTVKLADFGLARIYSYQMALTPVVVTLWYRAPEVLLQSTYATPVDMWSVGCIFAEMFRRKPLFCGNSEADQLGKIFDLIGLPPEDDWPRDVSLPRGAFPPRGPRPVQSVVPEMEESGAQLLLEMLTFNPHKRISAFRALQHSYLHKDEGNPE
UniProt Q00534, whole entry: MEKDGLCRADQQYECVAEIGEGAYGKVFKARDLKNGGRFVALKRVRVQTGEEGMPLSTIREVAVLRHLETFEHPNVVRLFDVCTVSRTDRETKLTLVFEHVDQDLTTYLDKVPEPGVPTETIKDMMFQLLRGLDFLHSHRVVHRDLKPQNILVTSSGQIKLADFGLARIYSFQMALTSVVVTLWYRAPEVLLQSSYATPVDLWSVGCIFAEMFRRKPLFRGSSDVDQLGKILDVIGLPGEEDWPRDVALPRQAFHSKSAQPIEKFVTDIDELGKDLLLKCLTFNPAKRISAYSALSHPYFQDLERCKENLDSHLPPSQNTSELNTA

In one assay the target is CDK4 (Homo sapiens (Human), UniProt P11802). As to the kind of experiment: CDK4 Inhibition Assay. Type of assay: biochemical.
In a further assay the target is CDK6 (Homo sapiens (Human), UniProt Q00534). As to the kind of experiment: CDK6 Inhibition Assay. Type of assay: biochemical.

`CCN1CCC(COc2ccc(Nc3ncc(F)c(-c4cc(F)c5nc6n(c5c4)C(C)(C)CC6)n3)nc2)CC1` [Example 8, N-(5-((1-ethylpiperidin-4-yl)methoxy)pyridin-2-yl)-5-fluoro-4-(5-fluoro-1,1-dimethyl-2,3-dihydro-1H-benzo[d]pyrrolo[1,2-a]imidazol-7-yl)pyrimidin-2-amine]: the IC50 (in general, the point on the concentration scale where inhibition reaches its midpoint) at CDK4 stood at 0.16 nM; at CDK6, 4.72 nM.
